# Measurements taken from the pKa sets of Baltruschat and Czodrowski (2020).
# Details: experimental values compiled from the literature
structure (smiles),measurement,value
Cc1nc([N-][N+](=O)[O-])n[nH]1,pKa,11.3
Nc1ccc(P(=O)(Nc2nccs2)Oc2ccccc2)cc1 (centres undefined),pKa,9.7
CCCN[N+](=O)[O-],pKa,6.47
Cn1nnc(N[N+](=O)[O-])n1,pKa,1.7
CCCCCCC([N+](=O)[O-])[N+](=O)[O-],pKa,5.5
OC1CN2CCC1CC2 (centres undefined),pKa,9.93
O=[N+]([O-])c1cc([N+](=O)[O-])c2nnn(O)c2c1,pKa,1.6
CN[N+](=O)[O-],pKa,6.25
CCC(CC(C)(C)[N+](=O)[O-])[N+](=O)[O-] (centres undefined),pKa,9.73
CCOP(=O)(Nc1nccs1)c1ccc(N)cc1 (centres undefined),pKa,9.3
O=[N+]([O-])Nc1nnn[nH]1,pKa,1.77
CCCC([N+](=O)[O-])[N+](=O)[O-],pKa,5.2
CC([N+](=O)[O-])[N+](=O)[O-],pKa,5.28
Nc1ccc(P(=O)(Nc2nccs2)OCC(F)(F)F)cc1 (centres undefined),pKa,8.7
CC(C)[NH+](CCS)C(C)C,pKa,8.08
O=[N+]([O-])[N-]c1nc[nH]n1,pKa,10.8
O=[N+]([O-])Nc1nc[nH]n1,pKa,3.95
CCCCCC([N+](=O)[O-])[N+](=O)[O-],pKa,5.5
O=C(O)C(O)(c1ccccc1)c1ccccc1,pKa,3.05
CC(C)N(CCO)C(C)C,pKa,10.1
Cc1nc(N[N+](=O)[O-])n[nH]1,pKa,4.77
N#CCCC([N+](=O)[O-])[N+](=O)[O-],pKa,3.45
CC(C)(C)C([N+](=O)[O-])[N+](=O)[O-],pKa,8.24
CCN(c1nnn[nH]1)[N+](=O)[O-],pKa,2.86
CN(c1nnn[nH]1)[N+](=O)[O-],pKa,2.88
CCCC[As](=O)(O)O,pKa,3.01
CCC([N+](=O)[O-])[N+](=O)[O-],pKa,5.67
O=[N+]([O-])c1cc2cn[nH]c2cc1[N+](=O)[O-],pKa,-0.73
CN(C)CC[S-],pKa,10.8
C[As](C)(C)=O,pKa,3.75
CCOP(=O)(Nc1nccs1)c1ccc([N+](=O)[O-])cc1 (centres undefined),pKa,8.7
CC(C)CC([N+](=O)[O-])[N+](=O)[O-],pKa,5.4
O=C(OO)c1ccccc1,pKa,7.3
CC[As](=O)(CC)CC,pKa,3.71
C1CN1,pKa,6.05
CCN[N+](=O)[O-],pKa,6.39
c1ccc(-c2nnn[nH]2)c(-c2nnn[nH]2)c1,pKa,2.71
CC(CC(C)(C)[N+](=O)[O-])[N+](=O)[O-] (centres undefined),pKa,8.95
O=[N+]([O-])[N-]c1nnn[nH]1,pKa,6.1
CCN(CC)CC[S-],pKa,11
NCCCl,pKa,8.49
COP(=O)(Nc1nccs1)c1ccc(N)cc1 (centres undefined),pKa,9.2
CCCCC([N+](=O)[O-])[N+](=O)[O-],pKa,5.45
O=[N+]([O-])Cc1ccc([N+](=O)[O-])cc1,pKa,5.89
O=[N+]([O-])Cc1cccc([N+](=O)[O-])c1,pKa,6.3
CC(C)C([N+](=O)[O-])[N+](=O)[O-],pKa,6.75
COP(=O)(Nc1nccs1)c1ccc([N+](=O)[O-])cc1 (centres undefined),pKa,8.6
c1cc(-c2nnn[nH]2)ccc1-c1nnn[nH]1,pKa,3.44
CN(c1nc([N+](=O)[O-])n[nH]1)[N+](=O)[O-],pKa,3.12
O=[N+]([O-])c1ccc(P(=O)(Nc2nccs2)Oc2ccccc2)cc1 (centres undefined),pKa,8.9
NCCF,pKa,8.79
CCCC[As](=O)(O)CCCC,pKa,6.65
CCC[NH+](CCC)CCS,pKa,8.62
CC[NH+](CC)CCS,pKa,7.72
CCn1nnnc1N[N+](=O)[O-],pKa,2.02
O=C(O)C1(O)c2ccccc2-c2ccccc21,pKa,2.92
O=[N+]([O-])c1cc([N+](=O)[O-])c2cn[nH]c2c1O,pKa,2.5
CC(C)(CC[N+](=O)[O-])[N+](=O)[O-],pKa,7.84
C[NH+](C)CCS,pKa,7.68
